Results: US11866515B2, “Hemiasterlin derivatives for conjugation and therapy” (priority 2015, dated 2024)

Test system: SKBR3
Assay: Tumor cell line assay (cell killing, Cell Titer-Glo), SKBR3
Format: cell-based
Conditions: trastuzumab conjugates, SKBR3 cells (FIG. 1)
Description: Relative luminescence was measured on an ENVISION® plate reader (Perkin-Elmer; Waltham, Mass.). Relative luminescence readings were converted to percent viability using untreated cells as controls.

Question: “Trastuzumab: trastuzumab, unconjugated antibody control” was tested. Which IC50 did it give?
Answer: 10 nM
